Biological target: Acetylcholinesterase (Homo sapiens, UniProt P22303)
Assay: Inhibition of AChE by modified Ellman's spectrophotometric method

Amino acid sequences for entries named in this document (tags omitted). Residues count along the entry.
UniProt P22303, 32-614 limits assumed: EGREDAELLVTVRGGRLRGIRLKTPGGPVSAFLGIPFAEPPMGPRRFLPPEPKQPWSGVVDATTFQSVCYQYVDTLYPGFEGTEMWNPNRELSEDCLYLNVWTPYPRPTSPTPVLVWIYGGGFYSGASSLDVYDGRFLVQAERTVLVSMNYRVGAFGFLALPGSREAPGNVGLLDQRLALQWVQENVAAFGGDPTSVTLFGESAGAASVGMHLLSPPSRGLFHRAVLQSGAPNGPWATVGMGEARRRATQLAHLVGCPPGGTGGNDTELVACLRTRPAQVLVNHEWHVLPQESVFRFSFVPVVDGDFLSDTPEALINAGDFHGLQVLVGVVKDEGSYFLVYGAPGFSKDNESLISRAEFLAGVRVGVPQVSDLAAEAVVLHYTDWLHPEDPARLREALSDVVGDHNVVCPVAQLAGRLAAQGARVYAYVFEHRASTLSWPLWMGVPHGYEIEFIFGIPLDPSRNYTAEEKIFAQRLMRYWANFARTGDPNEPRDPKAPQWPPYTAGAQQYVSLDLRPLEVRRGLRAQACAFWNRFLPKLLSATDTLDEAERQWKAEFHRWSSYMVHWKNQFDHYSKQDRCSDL

Q: With CO[P@]1(=O)OC[C@H]2COC(=O)C2=C(C)O1 as the compound, how does the IC50 read?
A: The IC50 was 0.8 nM.

From BindingDB's records for 20189400
